The values below come from US20130079309A1 (published 2013).

Amino acid sequences for entries named in this document (tags omitted). A change or cut given only in a name is not applied to a line headed by its entry.
UniProt P21453, whole entry: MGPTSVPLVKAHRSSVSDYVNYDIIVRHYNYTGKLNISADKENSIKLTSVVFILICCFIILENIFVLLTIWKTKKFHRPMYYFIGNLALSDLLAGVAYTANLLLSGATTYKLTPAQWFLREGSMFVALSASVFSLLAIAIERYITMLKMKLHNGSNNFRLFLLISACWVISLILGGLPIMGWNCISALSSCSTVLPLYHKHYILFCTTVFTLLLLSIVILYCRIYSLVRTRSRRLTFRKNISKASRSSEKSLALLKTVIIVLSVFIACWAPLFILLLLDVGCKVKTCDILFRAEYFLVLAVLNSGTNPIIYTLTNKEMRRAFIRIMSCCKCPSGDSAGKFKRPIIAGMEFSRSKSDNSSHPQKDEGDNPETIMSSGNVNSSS

Assay [1] addresses T1, S1P receptor 1 (S1PR1) (Homo sapiens, UniProt P21453). Kind of assay: S1PR1 protein expression in HPAEC by Western blot. It counts as cell-based. For orientation: In western blotting, separated proteins are transferred to a membrane and probed.
The target in assay [2] is T1, S1P receptor 1 (S1PR1). The assay is described as follows: Ubiquitination of S1PR1 in HPAEC (immunoprecipitation, ubiquitin Ab). As to conditions: 1 μM.

For `CCCCCCCCc1ccc(CCC(N)(CO)COP(=O)(O)O)cc1` (stereo not shown) [p-FTY], at S1P receptor 1 (S1PR1) [1] (1 μM (SEW2871 10 μM), 4 h), the “S1PR1 expression level compared to control” value is given as 17.7%. The “S1PR1 expression, agonist without MG132” value at S1P receptor 1 (S1PR1) [1] (1 μM, 4 h (FIG. 18)) amounted to 51.8%. Besides, the “S1PR1 expression, agonist after MG132 pretreatment” value on S1P receptor 1 (S1PR1) [1] (MG132 10 μM 2 h, then 1 μM agonist 4 h) was determined as 80.3%. Further, the “ubiquitination of S1PR1 at 1 h” value at S1P receptor 1 (S1PR1) [2] is on record as “significant ubiquitination”.
